From patent US6916822B2, “Phenoxyalkylamine derivatives useful as opioid δ receptor agonists” (Meiji Seika Kaisha, Ltd., priority 2000, dated 2005)

target: T1, opioid δ receptor (Rattus norvegicus, UniProt P33533); assay: Binding affinity for opioid δ receptor ([3H]-Naltrindole binding experiment); details: membrane fraction from rat forebrain; [3H]-Naltrindole 1 nM; 25° C., 90 minutes; Ki calculated from IC50 by Cheng-Prusoff equation
T1 construct: A membrane fraction of opioid δ receptor was prepared from the rat forebrain; from tissue; host or cells: rat forebrain membrane fraction

Compound	Ki [nM]
CCN(CC)C(=O)c1ccc(Cc2ccccc2OCCN2CCC3(CC2)C(=O)N(C)CN3c2ccccc2)cc1 [Example 36, 8-[2-[2-(4-Diethylcarbamoylbenzyl)phenoxy]ethyl]-3-methyl-1-phenyl-1,3,8-triazaspiro[4,5]decan-4-one]	240
O=C(c1ccc(Cc2ccccc2OCCN2CCC(n3c(=O)[nH]c4ccccc43)CC2)cc1)N1CCCC1 [Example 15, 4-(1,3-Dihydro-2H-benzimidazol-2-on-1-yl)-1-[2-[2-(4-pyrrolidinocarbonyl-benzyl)phenoxy]ethyl]piperidine]	281
CCN(CC)C(=O)c1ccc(Cc2ccccc2OCCN2CCC(C(C)=O)(c3ccccc3)CC2)cc1 [Example 49, 4-Acetyl-1-[2-[2-(4-diethylcarbamoylbenzyl)phenoxy]ethyl]-4-phenylpiperidine]	943
CC(C)N(C(=O)c1ccc(Cc2ccccc2OCCN2CCC3(CC2)C(=O)NCN3c2ccccc2)cc1)C(C)C [Example 32, 8-[2-[2-(4-Diisopropylcarbamoylbenzyl)phenoxy]ethyl]-1-phenyl-1,3,8-triazaspiro[4,5]decan-4-one]	517
CCC(C)C(=O)c1ccc(Cc2ccccc2OCCN2CCC(n3c(CO)nc4ccccc43)CC2)cc1 (stereo not drawn) [Example 110, 4-(2-Hydroxymethyl-1H-benzimidazol-1-yl)-1-[2-[2-[4-(2-methylbutyryl)benzyl]phenoxy]ethyl]piperidine]	88
CC(C)COC(=O)c1ccc(Cc2ccccc2OCCN2CCC(n3c(CO)nc4ccccc43)CC2)cc1 [Example 103, 1-[2-[2-(4-Isobutyloxycarbonylbenzyl)phenoxy]ethyl]-4-(2-hydroxymethyl-1H-benzimidazol-1-yl)piperidine]	73
